Test results as given in US6479487B1, “6, 9-disubstituted 2-[trans-(4-aminocyclohexyl)amino] purines” (Aventis Pharmaceuticals Inc., priority 1998, dated 2002).
“And” between values parts separate entries of the source, which are not always exact repeats. Equal values may be shown once. Where a name gives a salt, the structure may show the parent alone.

Protein sequences, listed by entry. Tags and fused reporters are not part of them.
UniProt P11802, whole entry: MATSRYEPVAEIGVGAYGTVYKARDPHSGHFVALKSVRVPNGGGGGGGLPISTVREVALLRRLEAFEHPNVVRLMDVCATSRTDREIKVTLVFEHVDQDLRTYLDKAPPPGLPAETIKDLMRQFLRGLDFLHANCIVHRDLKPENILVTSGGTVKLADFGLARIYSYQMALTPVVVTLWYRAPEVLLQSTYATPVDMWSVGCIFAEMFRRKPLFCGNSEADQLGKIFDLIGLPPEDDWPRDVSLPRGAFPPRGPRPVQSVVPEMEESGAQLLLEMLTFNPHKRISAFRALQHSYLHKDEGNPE
UniProt P24385, whole entry partner: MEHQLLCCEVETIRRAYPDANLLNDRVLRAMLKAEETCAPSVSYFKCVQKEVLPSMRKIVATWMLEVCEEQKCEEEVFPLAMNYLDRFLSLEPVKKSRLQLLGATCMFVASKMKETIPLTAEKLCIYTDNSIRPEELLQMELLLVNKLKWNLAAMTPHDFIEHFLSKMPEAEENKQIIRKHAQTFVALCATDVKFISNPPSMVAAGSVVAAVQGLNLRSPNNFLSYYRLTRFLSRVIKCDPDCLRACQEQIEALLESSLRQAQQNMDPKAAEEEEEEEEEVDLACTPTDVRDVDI

Tests used:
[1] = tested on: MDA-MB-435; test: In vitro tumor cell proliferation, MDA-MB-435; assay type: cell-based; settings: read-out: In vitro Tumor Cell Proliferation (IC50, μM) Breast MDA-MB-435, values given with an undefined *
[2] = tested on: Colo-205; test: In vitro tumor cell proliferation, Colo-205; assay type: cell-based; settings: read-out: In vitro Tumor Cell Proliferation (IC50, μM) Colon Colo-205, values given with an undefined *
[3] = tested on: DMS-114; test: In vitro tumor cell proliferation, DMS-114; assay type: cell-based, human; settings: read-out: In vitro Tumor Cell Proliferation (IC50, μM) Lung DMS-114, many values given with an undefined *
[4] = tested on: A549; test: In vitro tumor cell proliferation, A549; assay type: cell-based, human; settings: read-out: In vitro Tumor Cell Proliferation (IC50, μM) Lung A549, many values given with an undefined *
[5] = tested on: DU145; test: In vitro tumor cell proliferation, DU145; assay type: cell-based, human; settings: read-out: In vitro Tumor Cell Proliferation (IC50, μM) Prostate DU145, many values given with an undefined *
[6] = biological target: cdk4/cyclin D1 (Homo sapiens, UniProt P11802); test: Cyclin-dependent Kinase 4 Assay (cdk4/cyclin D1, GST-Rb substrate); assay type: biochemical; settings: read-out: CDK4 Inhibition IC50, cdk4/cyclin D1 insect cell lysate, 10 μM ATP, 30 min at 37° C., several values = separate determinations
[7] = tested on: HT-29; test: In vitro tumor cell proliferation, HT-29; assay type: cell-based, human; settings: read-out: In vitro Tumor Cell Proliferation (IC50, μM) Colon HT-29, many values given with an undefined *
[8] = tested on: PC-3; test: In vitro tumor cell proliferation, PC-3; assay type: cell-based, human; settings: read-out: In vitro Tumor Cell Proliferation (IC50, μM) Prostate PC-3, many values given with an undefined *
[9] = tested on: MDA-MB-231; test: In vitro tumor cell proliferation, MDA-MB-231; assay type: cell-based, human; settings: read-out: In vitro Tumor Cell Proliferation (IC50, μM) Breast MDA-MB-231, sulforhodamine B or CyQUANT assay, many values given with an undefined *

`Cc1ccc(CN2CCC(Nc3nc(N[C@H]4CC[C@H](N)CC4)nc4c3ncn4C3CCCC3)CC2)cc1Cl` [Example 147-y, 2-[Trans-(4-aminocyclohexyl)amino]-6-[4-[1-(3-chloro-4-methylbenzyl)]piperidinylamino]-9-cyclopentylpurine trihydrochloride] was tested, and the IC50 [1] was 0.38 µM and 0.35 µM, the IC50 [2] was 0.25 µM and the IC50 [3] was 0.4 µM and 0.26 µM. For the same compound, the IC50 [4] was 0.27 µM and 0.22 µM, the IC50 [5] was 0.31 µM and 0.32 µM and the IC50 [6] was 7400 nM and 7100 nM. For the same compound, the IC50 [7] was 0.4 µM and 0.3 µM, the IC50 [8] was 0.28 µM and 0.32 µM and the IC50 [9] was 0.43 µM and 0.29 µM.
